Drawing on patent US20040248990A1, “Ketone peroxide compositions” (priority 2002, published 2004), this text covers Solubility in isodecane and Solubility in dimethyl-phthalate for 1 compound.

The nature of the series: Solubility of Type 4 ketone peroxides in different solvents (Table I). The note with it: at 20° C.

Some compounds may have been tested in ways that are not shown here. Where only a bound is given, the exact number is not on record here.

Turning to `CCCCCC(C)(OO)OO`, the Solubility in isodecane (apolar isododecane) is on record as >45 g/100 g. In addition, the Solubility in dimethyl-phthalate (polar dimethylphthalate) is on record as >30 g/100 g.
